Entries after “also recorded” stand apart in the source; their conditions may differ.
System: pyramidal neurons in layers III and IV of the posterior cingulate and retrosplenial (PC/RS) cortices
Assay: In vivo assay of toxic side effects of NMDA antagonists (vacuole formation in PC/RS cortex)

Ibogaine
neurotoxic reaction in the PC/RS cortex at the highest dose tested (100 mg/kg/ip, rats): did not cause a neurotoxic reaction
neurotoxic (vacuole) reaction in PC/RS cortex, drug by itself (adult female rats, ip, sacrificed four hours after treatment): did not cause this neurotoxic reaction; also recorded: neither SKF (+)10,047 nor ibogaine by itself caused vacuoles
vacuole reaction in PC/RS neurons, drug combined with sigma agonist SKF (+)10,047 (co-administered with SKF (+)10,047, rats): caused a vacuole reaction in PC/RS neurons
nearly a lethal dose (highest dose tested) (rats): 100 mg/kg/ip

— patent US6391871B1 (priority 1996, dated 2002)
